Measured affinities in a library of Ab-91 heavy chain variants

Reference: Engelhart et al. 2022, doi:10.1038/s41597-022-01779-4. File: FLAb, binding data.

All variants were tested on one target, the spike HR2 peptide PDVDLGDISGINAS (SARS-CoV-2).

Parent: Ab-91, a human scFv built as VL, a (GGGGS)3 linker, VH. Only the CDRs of the heavy chain vary.
VL: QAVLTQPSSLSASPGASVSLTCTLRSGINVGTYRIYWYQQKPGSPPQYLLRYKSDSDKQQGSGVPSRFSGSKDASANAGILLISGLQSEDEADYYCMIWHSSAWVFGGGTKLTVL
VH: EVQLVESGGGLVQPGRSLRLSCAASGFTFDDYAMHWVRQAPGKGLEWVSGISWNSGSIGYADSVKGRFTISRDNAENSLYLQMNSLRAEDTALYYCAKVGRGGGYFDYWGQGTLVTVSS

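Phage display of a naive human antibody library on the peptide gave the parent. Variants in AAYL51 differ from the parent at up to three CDR positions; double and triple changes were sampled at random. AlphaSeq pools MATa yeast showing the antibodies with MATalpha yeast showing the peptide. After mating in shaken culture at 30 °C for 16 h, diploids were selected and their barcode pairs sequenced. Read counts were normalised to the haploid input and turned into Kd by a linear fit to BCL2-family pairs of known affinity, for each replicate. Mating was done three times.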

The parent's heavy chain CDRs are GFTFDDYAMH, GISWNSGSIGYADSVK, VGRGGGYFDY; each variant's own CDRs replace them letter for letter.
Values are log10 of the apparent Kd in nM; lower means stronger binding.
Where no diploid with the target was found in that replicate, the entry reads "nd": below detection, most likely a poor binder, though not proof of it.
For reference, the parent read 1.86 as the reference entry and 0.88 as a member of this library.
As a blank, each scFv also met three strains without target: over library AAYL51, 21% of these pairings were detected, typically at 4.54 and seldom below 3.26. For each scFv, signals with the empty controls are counted beside the result.

With GFTFDDSAMH / GISWNSGSIGYADEVK / VGRGGGYFDY the result was 1.51, 2.02, 0.82 (controls 0 of 9).
With GFTFDDHAMH / GISWNSGSIGYADLVK / VGRGGGYHDY the result was 5.20, 5.73, nd (controls 2 of 9).
With GFTVDDYAMH / GITWNSGSIGYADSVK / VGRSGGYFDY the result was 4.18, 3.42, nd (controls 2 of 9).
With GFTFDDYGMH / MISWNSGSIGEADSVK / VGRGGGYFDY the result was nd, nd, nd (controls 0 of 9).
With GFTFDDYPMH / GISNNSGSIGYADSVK / VGRGGGYFDE the result was 2.36, 2.71, 3.10 (controls 3 of 9).
With GFTFDDGAMH / GISWNSGSIGYTDSVK / VTRGGGYFDY the result was nd, nd, nd (controls 1 of 9).
With GFTFDRYKMH / GISWNSGSIGYAYSVK / VGRGGGYFDY the result was nd, nd, 4.79 (controls 0 of 9).
With GFTFDDYAMH / GISWNSSSIGYADSKK / VGRGGGYFVY the result was 4.04, 4.94, nd (controls 3 of 9).
With GFTFDDYAMH / GISWNSGTIGYADSWK / VGRGGGYFDA the result was 5.10, 4.72, 6.35 (controls 9 of 9).
With GFTFDDYGMH / GISWNSGSIGYADCVK / VGRGFGYFDY the result was nd, nd, nd (controls 0 of 9).
With GFTFDDYAMH / EISWNSGSIGYADSVK / VGRGIPYFDY the result was nd, nd, nd (controls 1 of 9).
With GFTFDDYAMH / GISWNSGSIGYAQSWK / VGRGGGYFDG the result was 3.91, nd, nd (controls 0 of 9).
With GFTDDDYAMH / SISWNSGSIGYADSVK / VGRGGGYFDY the result was nd, nd, 4.34 (controls 2 of 9).
With GFTFDDYAMH / GISWNSGSQGYADSVK / VGRGGGYFDY the result was 1.55, 1.59, 1.35 (controls 2 of 9).
With GFTFDDYAMH / CISWNSGHIGYADSVK / VGRGGGYIDY the result was nd, nd, nd (controls 3 of 9).
With GFTFDDEAMH / GISWNSGSIGNADSVK / VGRGGGYFDM the result was 4.77, 3.68, nd (controls 3 of 9).
With GFTFDDYAMH / GISWNSGSIGYADSVK / VGRGGGYTRP the result was 4.80, nd, nd (controls 2 of 9).
With GFTFDDYAMH / GISWNSGSIGYWDSVK / VGAGGGYFDF the result was nd, nd, nd (controls 0 of 9).
With GFTFDDRAMH / GISWNSGSSGYLDSVK / VGRGGGYFDY the result was nd, nd, nd (controls 0 of 9).
With GFTFDDYAMH / GISCNSGSIGYADSAK / VDRGGGYFDY the result was 4.94, nd, nd (controls 1 of 9).
With GFTFDDYAMH / GISWGSKSIGYADSVK / VGRGGGYFDY the result was 2.61, 2.03, 2.56 (controls 0 of 9).
With GFTDDDYAMH / GIEWNSGSIGYADSVK / VGRGGGAFDY the result was nd, nd, nd (controls 0 of 9).
With GFTFCDYAMH / GISWNSGSIGYADSVK / VGRGGGYFEM the result was 2.49, 2.45, 1.63 (controls 0 of 9).
With GFLFDTYAMH / GISWNSGSIGYAPSVK / VGRGGGYFDY the result was 4.81, 5.48, 5.33 (controls 7 of 9).
With GFTFDDYAMH / GNSWNSGSIIYADSVK / VSRGGGYFDY the result was nd, nd, 3.35 (controls 1 of 9).
With GWTFRDYAMH / GISWNSGSIKYADSVK / VGRGGGYFDY the result was nd, nd, nd (controls 2 of 9).
With EFTFDDYAMH / GISYNVGSIGYADSVK / VGRGGGYFDY the result was nd, nd, 3.42 (controls 1 of 9).
With GFTFDDYAMH / GKSMNSGSIGYADSVK / VGRGGGYFDY the result was 5.78, nd, nd (controls 4 of 9).
With GFTFDDYAMH / LNSWNSGSIGYADSVK / VGRGGGYPDY the result was 5.13, nd, nd (controls 3 of 9).
With GFTFDDYAMK / GISWNSGSIGYADSGK / VGRGGGYFDY the result was 5.98, nd, nd (controls 0 of 9).
With CFTFDDYAMH / GISWNSLSWGYADSVK / VGRGGGYFDY the result was 4.63, 4.44, 4.78 (controls 4 of 9).
With LFTFDDYAMH / GISWYSGSIGYADSVK / VGRGGGYFDK the result was nd, 6.78, 5.23 (controls 5 of 9).
With GFTFDDYAPH / GIWWNSGSIGYADSVK / VGRGGGYFYY the result was nd, 4.96, 4.83 (controls 5 of 9).
With GFTFDDYAMH / GISWNSGSVMYADSVN / VGRGGGYFDY the result was 5.53, 5.53, nd (controls 5 of 9).
With GFTFMDYAMH / GISWNSGSIGYADSLK / SGRGGGYFDY the result was 3.97, 4.06, nd (controls 3 of 9).
With GFTFDDYAMH / GISTNSGSIGYADSVK / VIIGGGYFDY the result was 4.61, nd, 3.58 (controls 1 of 9).
With GFTFDDYAMH / GIDWNSGSIMYADSVM / VGRGGGYFDY the result was nd, nd, nd (controls 0 of 9).
With GFTFDDYAMH / GINWNSGSTGYADSVK / VGRGGGSFDY the result was nd, nd, nd (controls 0 of 9).
With GFTTDDYAMH / GISCGSGSIGYADSVK / VGRGGGYFDY the result was nd, nd, nd (controls 1 of 9).
With GFTFDDYAMH / GTSWNSGSIGYADSVK / VGRYRGYFDY the result was 3.27, nd, nd (controls 1 of 9).
With GITFDDYQMH / GISWNSGSIGYADSVK / VGRGGGYFDY the result was nd, nd, nd (controls 3 of 9).
With GDTFDDYAMH / GKSWNSGSIGYADSVK / VGRGGGYFDY the result was nd, 5.30, nd (controls 6 of 9).
With GFTFDPYAMH / PISWCSGSIGYADSVK / VGRGGGYFDY the result was nd, nd, nd (controls 0 of 9).
With GFTFDDYAMH / GISRNSGSIVYADSVH / VGRGGGYFDY the result was 3.87, nd, nd (controls 2 of 9).
With GFTFDDYAMH / GISWNGGSIGYADSKK / VGRGGGYFDY the result was 3.91, 5.66, nd (controls 0 of 9).
With GFTFDDYCMH / GISWNSGSIGYADAVK / VERGGGYFDY the result was nd, 3.61, nd (controls 1 of 9).
With GFTFDDYAMH / GCSWNSGSKGYADSVN / VGRGGGYFDY the result was 3.34, 3.17, 3.57 (controls 4 of 9).
With GFTFDDYAMH / GISWNSGSIGYADSVK / NGRGGGYFDY the result was 4.51, 4.69, 4.89 (controls 5 of 9).
With GFTFYDYAMH / GISWNSGSIGYADEVK / VGRGGGYFDY the result was 4.36, nd, 4.11 (controls 2 of 9).
With CFIFDDYAMH / GISWNSGSIGYADSVK / VGRGGGYRDY the result was nd, nd, nd (controls 0 of 9).

Picked from the list: the 8 lowest averages where every replicate gave a value.

The variant GFTFDDSAMH / GISWNSGSIGYADEVK / VGRGGGYFDY gave 1.51, 2.02, 0.82 (controls 0 of 9).
The variant GFTFDDYAMH / GISWNSGSQGYADSVK / VGRGGGYFDY gave 1.55, 1.59, 1.35 (controls 2 of 9).
The variant GFTFCDYAMH / GISWNSGSIGYADSVK / VGRGGGYFEM gave 2.49, 2.45, 1.63 (controls 0 of 9).
The variant GFTFDDYAMH / GISWGSKSIGYADSVK / VGRGGGYFDY gave 2.61, 2.03, 2.56 (controls 0 of 9).
The variant GFTFDDYPMH / GISNNSGSIGYADSVK / VGRGGGYFDE gave 2.36, 2.71, 3.10 (controls 3 of 9).
The variant GFTFDDYAMH / GCSWNSGSKGYADSVN / VGRGGGYFDY gave 3.34, 3.17, 3.57 (controls 4 of 9).
The variant CFTFDDYAMH / GISWNSLSWGYADSVK / VGRGGGYFDY gave 4.63, 4.44, 4.78 (controls 4 of 9).
The variant GFTFDDYAMH / GISWNSGSIGYADSVK / NGRGGGYFDY gave 4.51, 4.69, 4.89 (controls 5 of 9).